Laboratory results published in patent US12565505B2, “mTORC modulators and uses thereof” (Aeovian Pharmaceuticals, Inc., priority 2019, dated 2026).

Target: mTORC1 (Homo sapiens, UniProt P42345+P62942)
Test: Inhibition assay for mTORC1: phosphorylation of pS6K at Thr389, AlphaLISA SureFire in PC3 cells
Type: cell-based
Conditions: 24 hours treatment, pS6K Thr389, analogs substituted at C40 and C16 (C16 diastereomer mixtures not isolated)

Row | Structure (SMILES) | pIC50 mTORC1
1 | CO[C@@H]1C[C@H](C[C@@H](C)[C@@H]2CC(=O)[C@H](C)/C=C(\C)[C@@H](O)[C@@H](OC)C(=O)[C@H](C)C[C@H](C)/C=C/C=C/C=C(\C)C(OCCc3ccccc3)C[C@@H]3CC[C@@H](C)[C@@](O)(O3)C(=O)C(=O)N3CCCC[C@H]3C(=O)O2)CC[C@H]1OC(=O)NCCOCCOCCOCCOCCO (stereo partly drawn) | A (PIC50 for mTORC1 of >9.5 as A)
2 | CO[C@@H]1C[C@H](C[C@@H](C)[C@@H]2CC(=O)[C@H](C)/C=C(\C)[C@@H](O)[C@@H](OC)C(=O)[C@H](C)C[C@H](C)/C=C/C=C/C=C(\C)C(OCC3CCOCC3)C[C@@H]3CC[C@@H](C)[C@@](O)(O3)C(=O)C(=O)N3CCCC[C@H]3C(=O)O2)CC[C@H]1OCCCO (stereo partly drawn) | A (PIC50 for mTORC1 of >9.5 as A)
3 | CO[C@@H]1C[C@H](C[C@@H](C)[C@@H]2CC(=O)[C@H](C)/C=C(\C)[C@@H](O)[C@@H](OC)C(=O)[C@H](C)C[C@H](C)/C=C/C=C/C=C(\C)C(OCCCO)C[C@@H]3CC[C@@H](C)[C@@](O)(O3)C(=O)C(=O)N3CCCC[C@H]3C(=O)O2)CC[C@H]1OCCCO (stereo partly drawn) | A (PIC50 for mTORC1 of >9.5 as A)

Same assay, conditions: treated 24 hours, phosphorylation of pS6K at Thr389, Rapamycin analogs substituted at C40

Row | Structure (SMILES) | pIC50 mTORC1
4 | COC1CC2CCC(C)C(O)(O2)C(=O)C(=O)N2CCCCC2C(=O)OC(C(C)CC2CCC(OCCOCCOCCOCCO)C(OC)C2)CC(=O)C(C)C=C(C)C(O)C(OC)C(=O)C(C)CC(C)C=CC=CC=C1C (stereo not drawn) | A (PIC50 for mTORC1 of >9.5 as A)
5 | COC1CC2CCC(C)C(O)(O2)C(=O)C(=O)N2CCCCC2C(=O)OC(C(C)CC2CCC(OC(=O)C(C)(CO)CO)C(OC)C2)CC(=O)C(C)C=C(C)C(O)C(OC)C(=O)C(C)CC(C)C=CC=CC=C1C (stereo not drawn) | A (PIC50 for mTORC1 of >9.5 as A)
6 | COC1CC2CCC(C)C(O)(O2)C(=O)C(=O)N2CCCCC2C(=O)OC(C(C)CC2CCC(OCCCN3CCCC(O)C3)C(OC)C2)CC(=O)C(C)C=C(C)C(O)C(OC)C(=O)C(C)CC(C)C=CC=CC=C1C (stereo not drawn) | A (PIC50 for mTORC1 of >9.5 as A)
